Values of other authors in patent US8436020B2, “Processes for the preparation of piperidinic derivatives and pharmaceutic compositions containing the same” (priority 2004, dated 2013).

The chains behind the UniProt entries cited, without tags or fusion partners. Residues count along the entry.
UniProt P22303, 32-614: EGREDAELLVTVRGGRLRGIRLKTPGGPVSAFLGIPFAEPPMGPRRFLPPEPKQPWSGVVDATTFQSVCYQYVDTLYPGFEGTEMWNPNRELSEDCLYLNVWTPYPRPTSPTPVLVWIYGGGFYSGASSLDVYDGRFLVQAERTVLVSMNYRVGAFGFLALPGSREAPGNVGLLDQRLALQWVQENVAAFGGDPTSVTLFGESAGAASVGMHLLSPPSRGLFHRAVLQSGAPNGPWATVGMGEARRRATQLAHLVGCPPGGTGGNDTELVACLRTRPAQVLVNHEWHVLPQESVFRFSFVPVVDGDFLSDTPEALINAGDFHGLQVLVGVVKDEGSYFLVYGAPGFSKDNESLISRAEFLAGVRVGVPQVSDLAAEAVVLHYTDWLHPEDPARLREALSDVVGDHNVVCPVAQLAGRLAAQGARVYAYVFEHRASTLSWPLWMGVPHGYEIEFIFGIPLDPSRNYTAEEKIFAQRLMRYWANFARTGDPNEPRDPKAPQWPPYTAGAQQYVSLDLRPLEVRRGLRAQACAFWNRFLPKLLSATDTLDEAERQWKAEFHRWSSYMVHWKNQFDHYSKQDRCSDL

Molecular target: AChE (Homo sapiens, UniProt P22303)
Conditions: cited from earlier work

Substance	IC50
arisugacine A	1 nM
arisugacine B	25.8 nM
